Experimental data taken from ChEMBL document CHEMBL1122589 (J Med Chem, 1984).

Test system: Nucleic Acid
Assay: Binding constant for DNA by ethidium bromide displacement
Assay type: nucleic-acid assay

CS(=O)(=O)Nc1ccc(Nc2c3ccccc3nc3ccccc23)cc1
Log K: 6.2
